From article PMC4835042 (Bioorganic & medicinal chemistry letters, 2015)

The chains behind the UniProt entries cited, without tags or fusion partners. Residues count along the entry.
UniProt Q14832, 23-879: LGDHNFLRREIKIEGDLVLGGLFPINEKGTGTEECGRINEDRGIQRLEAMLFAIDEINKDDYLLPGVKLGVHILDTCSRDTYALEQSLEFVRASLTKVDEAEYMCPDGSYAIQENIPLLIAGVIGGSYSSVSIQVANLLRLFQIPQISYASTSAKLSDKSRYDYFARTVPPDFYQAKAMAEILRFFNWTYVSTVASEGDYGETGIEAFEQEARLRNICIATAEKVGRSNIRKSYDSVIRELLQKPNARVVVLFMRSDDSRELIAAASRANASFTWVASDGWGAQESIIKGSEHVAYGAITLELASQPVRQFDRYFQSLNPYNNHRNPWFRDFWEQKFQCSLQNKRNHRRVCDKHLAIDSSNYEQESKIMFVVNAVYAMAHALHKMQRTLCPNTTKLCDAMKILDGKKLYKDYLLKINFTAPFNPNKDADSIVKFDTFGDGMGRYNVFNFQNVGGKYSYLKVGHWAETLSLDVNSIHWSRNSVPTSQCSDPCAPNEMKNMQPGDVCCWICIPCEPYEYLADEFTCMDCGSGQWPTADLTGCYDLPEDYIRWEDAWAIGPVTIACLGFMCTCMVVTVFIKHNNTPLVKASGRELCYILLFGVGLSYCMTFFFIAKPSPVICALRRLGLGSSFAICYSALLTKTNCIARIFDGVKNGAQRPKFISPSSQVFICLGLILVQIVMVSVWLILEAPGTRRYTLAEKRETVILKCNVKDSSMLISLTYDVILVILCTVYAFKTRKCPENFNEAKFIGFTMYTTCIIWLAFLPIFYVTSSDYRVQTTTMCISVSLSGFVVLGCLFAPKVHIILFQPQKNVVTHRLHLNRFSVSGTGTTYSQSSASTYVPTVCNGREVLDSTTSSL
UniProt P41594, 21-1212: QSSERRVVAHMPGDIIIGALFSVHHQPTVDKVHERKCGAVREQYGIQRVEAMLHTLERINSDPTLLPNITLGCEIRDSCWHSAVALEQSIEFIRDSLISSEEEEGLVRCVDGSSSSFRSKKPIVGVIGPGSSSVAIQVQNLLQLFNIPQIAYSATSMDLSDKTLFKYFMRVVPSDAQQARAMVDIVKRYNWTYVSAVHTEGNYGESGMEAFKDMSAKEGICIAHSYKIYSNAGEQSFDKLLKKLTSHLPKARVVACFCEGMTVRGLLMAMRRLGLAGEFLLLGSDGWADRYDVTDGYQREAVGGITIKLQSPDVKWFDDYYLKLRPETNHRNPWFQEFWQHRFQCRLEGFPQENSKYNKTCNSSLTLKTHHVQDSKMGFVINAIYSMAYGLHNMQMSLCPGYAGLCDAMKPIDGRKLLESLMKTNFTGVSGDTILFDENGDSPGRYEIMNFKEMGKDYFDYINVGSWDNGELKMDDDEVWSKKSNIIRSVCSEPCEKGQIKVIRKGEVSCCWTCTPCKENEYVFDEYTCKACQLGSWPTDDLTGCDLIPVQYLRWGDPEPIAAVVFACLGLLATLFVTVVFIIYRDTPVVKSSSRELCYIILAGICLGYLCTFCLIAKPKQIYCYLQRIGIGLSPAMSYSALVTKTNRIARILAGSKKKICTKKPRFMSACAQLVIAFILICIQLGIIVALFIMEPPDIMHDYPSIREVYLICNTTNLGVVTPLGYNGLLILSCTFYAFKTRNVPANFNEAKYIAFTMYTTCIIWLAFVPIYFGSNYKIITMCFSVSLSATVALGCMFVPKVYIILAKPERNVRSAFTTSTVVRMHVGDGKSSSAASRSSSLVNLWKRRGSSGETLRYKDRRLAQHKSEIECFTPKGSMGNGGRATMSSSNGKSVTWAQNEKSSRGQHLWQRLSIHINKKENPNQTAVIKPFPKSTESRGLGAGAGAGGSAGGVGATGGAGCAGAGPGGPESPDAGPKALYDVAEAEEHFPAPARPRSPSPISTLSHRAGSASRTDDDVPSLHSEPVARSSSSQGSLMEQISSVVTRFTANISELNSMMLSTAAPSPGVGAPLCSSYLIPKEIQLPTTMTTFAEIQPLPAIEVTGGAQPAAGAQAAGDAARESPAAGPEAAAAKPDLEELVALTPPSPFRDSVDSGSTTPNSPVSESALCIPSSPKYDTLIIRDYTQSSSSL

How the values were obtained:
human mGlu3 = human mGlu3 (Homo sapiens, UniProt Q14832)
human mGlu5 = human mGlu5 (Homo sapiens, UniProt P41594); conditions: human mGlu5 expressing cells

O=C1c2cc(COc3ccccc3)nn2CCN1c1ccc(F)cn1 [4k]
mGlu3/mGlu5 EC50 ratio (human mGlu3): 52 | glutamate CRC fold-shift (FS) (human mGlu5): 7.7 | GSH/CN trapping result (GSH/CN trapping studies): benign profile
